Measurements taken from patent publication US12186329B2 (President and Fellows of Harvard College, priority 2018, dated 2025).
pEC50: −log10 of the molar value. Like-named read-outs stand apart in the source and are kept apart here.

Key:
TGR5 [1] = biological target: T1, TGR5 (Homo sapiens, UniProt Q8TDU6); assay: TGR5 activation in L-cells (luciferase reporter), dose response; assay type: cell-based; design: endogenous in cells; host or cells: NCI-H716 (human intestinal L-cells, ATCC); conditions: read-out: EC50 of TGR5 activation in L-cells (dose response curve)
T1 sequence (Q8TDU6 1-330): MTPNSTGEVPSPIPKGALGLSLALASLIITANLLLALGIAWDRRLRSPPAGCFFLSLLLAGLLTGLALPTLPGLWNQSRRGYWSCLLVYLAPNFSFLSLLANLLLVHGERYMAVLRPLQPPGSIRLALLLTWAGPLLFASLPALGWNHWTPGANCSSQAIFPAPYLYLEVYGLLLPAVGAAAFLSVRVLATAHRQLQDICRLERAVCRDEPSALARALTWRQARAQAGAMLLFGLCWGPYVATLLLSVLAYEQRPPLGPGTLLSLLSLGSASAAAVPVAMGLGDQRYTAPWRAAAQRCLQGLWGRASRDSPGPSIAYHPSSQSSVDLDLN
Experimental: (§1) Plasmids and transient transfections. […] For luciferase reporter assays for TGR5 activation, the pGL4.29[luc2P/CRE/Hygro] plasmid (Promega Corporation), and the pGL4.74[hRluc/CMV] plasmid (Promega Corporation) were used at concentration of 2 μg/ml and 0.05 μg/ml of media respectively. […] Plasmid transfection were performed in antibiotic-free media (MEM for HEK293T and RPMI for Matrigel-attached NCI-H716 cells) with 10% FBS. […] Cells were harvested the next day for luciferase assay.
(§2) Luciferase reporter assay. Luminescence was measured using the Dual-Luciferase Reporter Assay System (Promega Corporation) according to manufacturer's instructions. Cells were washed gently with PBS and lysed in PLB from the kit. Matrigel-attached cells were scraped in PLB. […] Luminescence was normalized to Renilla luciferase activity and percentage relative luminescence was calculated compared to DMSO control.

TGR5 [2] = biological target: T1, TGR5; conditions: for TGR5 activation in HEK293T cells: compared with TDCA
Experimental: as §1, §2

With C[C@H](CCC(=O)O)[C@H]1CC[C@H]2[C@@H]3[C@H](OS(=O)(=O)O)C[C@@H]4C[C@H](O)CC[C@]4(C)[C@H]3C[C@H](O)[C@]12C [CA7S, cholic acid-7-sulfate] the pEC50 (TGR5 [1]) was 7.89, the “TGR5 activation in HEK293T cells” value (TGR5 [2]) was “activated human TGR5 in a dose-dependent manner and to a similar extent as TDCA” and the “TGR5 activation in HEK293T cells” value (TGR5 [2]; listed as Cholic acid-7-sulfate) was “induces TGR5 activation in HEK293T cells”. The pEC50 (TGR5 [2]; read-out: EC50 of human TGR5 activation, HEK293T cells) was 6.77.
